Measurements as given in ChEMBL document CHEMBL2385030, “Crystallographic Investigation and Selective Inhibition of Mutant Isocitrate Dehydrogenase” (ACS Med Chem Lett, 2013).

Sequences of proteins named here, by UniProt entry; tags and fusion partners are left off.
UniProt O75874, whole entry: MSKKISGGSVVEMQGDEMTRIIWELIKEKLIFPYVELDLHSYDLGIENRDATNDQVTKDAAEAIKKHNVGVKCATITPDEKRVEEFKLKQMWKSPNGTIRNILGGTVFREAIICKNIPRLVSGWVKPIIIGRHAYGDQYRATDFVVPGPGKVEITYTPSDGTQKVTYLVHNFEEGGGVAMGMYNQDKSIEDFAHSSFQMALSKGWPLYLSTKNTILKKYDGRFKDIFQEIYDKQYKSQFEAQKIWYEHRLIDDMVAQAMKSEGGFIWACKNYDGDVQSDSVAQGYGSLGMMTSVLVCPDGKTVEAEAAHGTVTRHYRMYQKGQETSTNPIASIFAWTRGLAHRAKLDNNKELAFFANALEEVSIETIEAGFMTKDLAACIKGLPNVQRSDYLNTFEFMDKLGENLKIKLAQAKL

Biological target: Isocitrate dehydrogenase [NADP] cytoplasmic (Homo sapiens, UniProt O75874)
Assay: Inhibition of wild type IDH1 (unknown origin) expressed in Escherichia coli BL21 using […] as substrate incubated for 5 mins prior to substrate addition measured every 30 secs

In the case of `Cc1cc(Cc2ccc(O)cc2)n(O)c(=O)c1`, the Ki is reported as 16.8 µM.
